# Data reported in patent US20100233079A1 (AbbVie / Abbott, published 2010).
# Chains of the proteins cited; added tags and fusions are not shown. Residues count along the entry.
# UniProt P01375, 77-233 limits assumed: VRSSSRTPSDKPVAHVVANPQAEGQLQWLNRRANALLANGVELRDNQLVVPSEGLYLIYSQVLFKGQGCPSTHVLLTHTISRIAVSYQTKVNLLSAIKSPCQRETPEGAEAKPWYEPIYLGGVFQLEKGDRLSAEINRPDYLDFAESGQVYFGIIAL
# pKd: −log10 of the molar value.
# Target: TNFα (TNFα/TNFSF1A) (UniProt P01375)
# Experiment: SPR (Biacore), DVD-Ig captured, antigen in solution
pKd,koff [s⁻¹],kon [M⁻¹ s⁻¹],Substance
9.28,0.000195,371000,DVD699-C (bispecific antibody; other documents disagree on this pair)
9.28,0.00019,364000,DVD700-C (bispecific antibody; other documents disagree on this pair)
9.40,0.000179,445000,DVD701-C (bispecific antibody; other documents disagree on this pair)
